Laboratory results published in patent publication US20210061861A1, “D-PEPTIDIC COMPOUNDS FOR VEGF” (Reflexion Pharmaceuticals, Inc., priority 2019, published 2021).
pKd: −log10 of the molar value.

Amino acid sequences for entries named in this document (tags omitted). Residues count along the entry.
UniProt P15692, 214-315: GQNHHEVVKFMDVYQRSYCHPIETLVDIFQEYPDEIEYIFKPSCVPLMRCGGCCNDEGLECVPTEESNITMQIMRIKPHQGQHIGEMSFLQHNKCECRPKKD

Assays:
[1] = melting and refolding curves; type: physicochemical; conditions: FIG. 16
Protocol: The melting temperature was determined to be approximately 50° C.

VEGF-A = VEGF-A (Homo sapiens, UniProt P15692); test: SPR binding of D-peptidic compounds to L-VEGF-A; parameters: Biotinylated VEGF-A(8-109) was immobilized on a biotin CAPture chip; conditions: read-out: VEGF Binding Affinity (KD); Table 4, D-peptidic Z and GA domains

Substance	melting temperature [1]	pKd (VEGF-A)
tidqwllknakedaiaelkkcGitephvisfinhapyvshvnGlkanilkaha [Compound 1.1.1]	approximately 50 °C	
vdnkfnkewdnawreirhlpnlnieqkrafihslyddpsqsanllaeakklndaqapk [Compound 980175]		6.96
vdnkfnkewdnawreirhlpnlnveqkrafikslyddpsqsanllaeakklndaqapk [Compound 980180]		6.92
